activity, negative = cytotoxicity data for 4 molecules are collected here from PubChem BioAssay AID720535 (National Center for Advancing Translational Sciences (NCATS), 2013).

Only a part is listed here, and it is no random draw. Records with an inconclusive call do not appear. Activity calls are given as the source filed them. Calls come from the whole dose curve; as a rule, active = well fitted inhibition curve with a large enough effect; inconclusive = small, poorly fitted or top-dose-only effect; inactive = flat fitted curve, though single readings scatter.

A short description of this assay: qHTS for Inhibitors of TGF-b: Cytotox Counterscreen for Cherry Picks. Note: nearly all actives have a fitted effect of over 70% in size. The note with it: HepG2 CAGA-GFP viability, ATP luminescence, 18 h, cells stimulated with TGF-beta, 500 pg/mL; at 46.1 µM (top of the series). From the text: TGF-b is a main component in the TGF-b signaling pathway which plays diverse roles in cellular and development pathways. TGF-b is mediated by transcription factors called "Smads". Although the Smad-dependent pathway is the primary canonical TGF-b signaling mode, TGF-b1 can also activate alternative signaling pathways, including those involving MAPK (ERK, JNK and p38). This interaction may mediate or enhance Smad-dependent responses, or can exert Smad-independent effects. The complexity of this signaling cascade allows the TGF-b superfamily to perform unique, overlapping or redundant functions. We believe that targeting the TGF-beta pathway at the Smad-transcription factor level may eliminate the consequences of disrupting the entire pathway and offer specificity without affecting other signaling pathways. Smad3 is the primary transducer of TGF-b's signals and Smad3 regulates many functions attributed to TGF-b signaling. We hypothesize that Smad3 inhibitors will selectively eliminate Smad3-specific TGF-beta signals without undesired off-target effects. We aim to identify Smad3-small molecule antagonists using a quantitative high throughput screening (qHTS) approach. A high-throughput assay was developed to screen the NIH Molecular Libraries Small Molecule Repository (MLSMR). This is a cell based assay, where TGF-b is tagged with GFP. This is a counterscreen that evaluates the cytotoxicity of the compounds that were identified as hits in the primary cell-based screen (AID 588855). MH087449NIH Chemical Genomics Center [NCGC] NIH Molecular Libraries Probe Centers Network [MLPCN] MLPCN Grant: MH087449 Assay Submitter (PI): Sushil Rane, National Institute of Diabetes and Kidney Diseases
Suspensions of trypsinized HEPG2 CAGA-GFP cells were dispensed into white, tissue culture-treated, solid 1536-well plates at 5uL/well (1000 cells/well final concentration) in DMEM medium supplemented with 1% FBS. Plates were incubated at 37 degrees C for 2 hours, after which 23 nL of compounds or DMSO were delivered to each well using a pin tool. […] Two uL of CellTiter Glo (Promega), a luminescence-based viability reagent, was dispensed, followed by a 10 minute room temperature incubation. The plates were then measured on a PerkinElmer ViewLux plate reader for luminescence (clear filter) using a 5 second exposure. The %Activity was determined from the corrected luminescence values. […] Concentration-response curves were fitted to the signals arising from the resulting luminescence. The concentration-effect curves were then classified based on curve quality (r2), response magnitude and degree of measured activity, and compounds were subsequently categorized based on their curve class.
On the technique in general: In qHTS, concentration-response curves come from the screen itself.
Turning to `CCCCn1nnnc1C(c1cccc2ccccc12)N1CCC(n2c(=O)[nH]c3ccccc32)CC1` (centres undefined), the activity, negative = cytotoxicity is inactive: -17.7%. Next, `CCCCn1nnnc1C(c1ccccc1OC(F)(F)F)N1CCC(n2c(=O)[nH]c3ccccc32)CC1` (centres undefined): inactive: -27%. With `O=c1[nH]c2ccccc2n1C1CCN(C(c2ccccc2)c2nnnn2C2CCCCC2)CC1` (centres undefined) the figure was inactive: -24.3%; with `O=c1[nH]c2ccccc2n1C1CCN(C(c2cccs2)c2nnnn2C2CCCCC2)CC1` (centres undefined), inactive: -13%.
